The target of this experiment is Mu-type opioid receptor (Rattus norvegicus, UniProt P33535). As to the kind of experiment: Binding affinity towards Opioid receptor mu 1 by displacing [3H]DAMGO in rat brain membranes. It is filed as cell membranes. An outline of the steps: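 Rat brain minus cerebellum homogenised in 0.32 M sucrose/10 mM Tris-HCl and spun. The pellet was preincubated 1 h to strip endogenous opioids. Membranes were incubated with 1 nM [3H]DAMGO in 50 mM Tris-HCl, 0.1% BSA, 2 mM EDTA, pH 7.4, 1 h at room temperature. Nonspecific binding used 100 µM DAMGO. GF/B filtration, scintillation counting.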

Sequences of proteins named here, by UniProt entry; tags and fusion partners are left off.
UniProt P33535, whole entry: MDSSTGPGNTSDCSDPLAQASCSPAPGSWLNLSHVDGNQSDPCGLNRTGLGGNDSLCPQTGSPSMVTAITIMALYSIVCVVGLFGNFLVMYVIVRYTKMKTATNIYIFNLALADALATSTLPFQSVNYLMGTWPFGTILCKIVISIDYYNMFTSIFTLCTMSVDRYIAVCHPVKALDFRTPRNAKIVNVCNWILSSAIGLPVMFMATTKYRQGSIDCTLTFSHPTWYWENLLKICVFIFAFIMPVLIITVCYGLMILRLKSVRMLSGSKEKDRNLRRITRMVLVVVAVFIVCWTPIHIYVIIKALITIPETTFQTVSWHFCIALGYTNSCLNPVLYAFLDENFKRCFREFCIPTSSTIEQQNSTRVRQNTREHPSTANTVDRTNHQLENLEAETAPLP

The text below walks through data of ChEMBL document CHEMBL1135467 (J Med Chem, 2002).

The term Ki denotes the equilibrium dissociation constant of an inhibitor or competing ligand from its target. A low value points to a stronger hold on the target.

In turn, `C[C@@H](NC(=O)[C@@H](N)Cc1ccc(O)cc1)C(=O)NCC(=O)N(C)[C@@H](Cc1ccccc1)C(=O)NCCO` [DAMGO] came in with a Ki of 1.6 nM.
